# From ChEMBL document CHEMBL1139143, “Synthesis and structure-activity relationships of N-substituted spiropiperidines as nociceptin receptor ligands” (Bioorg Med Chem Lett, 2007)
# Experiments:
# [1] = target: Delta-type opioid receptor (Homo sapiens, UniProt P41143); assay: Displacement of [3H]diprenorphine from human delta opioid receptor expressed in CHO cell membrane
# [2] = target: Kappa-type opioid receptor (Homo sapiens, UniProt P41145); assay: Displacement of [3H]diprenorphine from human kappa opioid receptor expressed in CHO cell membrane
# [3] = target: Mu-type opioid receptor (Homo sapiens, UniProt P35372); assay: Displacement of [3H]diprenorphine from human mu opioid receptor expressed in CHO cell membrane
# [4] = target: Nociceptin receptor (Homo sapiens, UniProt P41146); assay: Displacement of [125I]nociceptin from human nociceptin receptor expressed in CHO cell membrane
SMILES,Ki [1],Ki [2],Ki [3],Ki [4]
O=C1NCN(c2ccccc2)C12CCN(C1CCCc3c(F)cccc31)CC2 (stereo not drawn),2400 nM,13.7 nM,72.3 nM,0.8 nM
O=C1NCN(c2ccccc2)C12CCN(CC1CCCCC1)CC2,73700 nM,517 nM,887 nM,61.2 nM
CCCC(c1ccccc1)N1CCC2(CC1)C(=O)NCN2c1ccccc1 (stereo not drawn),3370 nM,22.5 nM,244 nM,2.4 nM
O=C1NCN(c2ccccc2)C12CCN(C1CCCc3ccc(F)cc31)CC2 (stereo not drawn),2650 nM,33.5 nM,133 nM,0.9 nM
O=C1NCN(c2ccccc2)C12CCN(C1c3ccccc3CCc3ccccc31)CC2,9780 nM,1670 nM,2450 nM,225 nM
CC(c1ccccc1)N1CCC2(CC1)C(=O)NCN2c1ccccc1 (stereo not drawn),1040 nM,50 nM,74 nM,3.5 nM
O=C1NCN(c2ccccc2)C12CCN(C1CCCc3cccc(Cl)c31)CC2 (stereo not drawn),1380 nM,143 nM,11.1 nM,2.6 nM
O=C1NCN(c2ccccc2)C12CCN(C1CCCc3c(Cl)cccc31)CC2 (stereo not drawn),2270 nM,94.5 nM,130 nM,2 nM
O=C1NCN(c2ccccc2)C12CCN(Cc1ccccc1Cl)CC2,725 nM,–,–,3.2 nM
O=C1NCN(c2ccccc2)C12CCN(Cc1ccccn1)CC2,31900 nM,321 nM,1760 nM,119 nM
O=C1NCN(c2ccccc2)C12CCN(C1CCCc3ccccc31)CC2 (stereo not drawn),3510 nM,65 nM,346 nM,1.4 nM
O=C1NCN(c2ccccc2)C12CCN(C(c1cccc(F)c1)c1cccc(F)c1)CC2,10400 nM,1450 nM,3190 nM,250 nM
O=C1NCN(c2ccccc2)C12CCN(C1CCCc3ccc(Cl)cc31)CC2 (stereo not drawn),2510 nM,66.5 nM,162 nM,10.8 nM
O=C1NCN(c2ccccc2)C12CCN(C(c1ccc(F)cc1)c1ccc(F)cc1)CC2,5600 nM,2010 nM,787 nM,49 nM
O=C1NCN(c2ccccc2)C12CCN(C1CCCCc3ccccc31)CC2 (stereo not drawn),1910 nM,203 nM,673 nM,14.5 nM
O=C1NCN(c2ccccc2)C12CCN(Cc1ccccc1)CC2,2950 nM,196 nM,500 nM,11 nM
CC1(C)CCC(N2CCC3(CC2)C(=O)NCN3c2ccccc2)c2ccc(F)cc21 (stereo not drawn),2460 nM,169 nM,59.1 nM,8.4 nM
O=C1NCN(c2ccccc2)C12CCN(C(c1ccccc1)c1ccccc1Cl)CC2 (stereo not drawn),14800 nM,1090 nM,778 nM,9 nM
O=C1NCN(c2ccccc2)C12CCN(C(c1cccc(Cl)c1)c1cccc(Cl)c1)CC2,26500 nM,4630 nM,1620 nM,249 nM
CC1(C)CCC(N2CCC3(CC2)C(=O)NCN3c2ccccc2)c2cc(Cl)c(Cl)cc21 (stereo not drawn),11700 nM,938 nM,977 nM,15.1 nM
O=C1NCN(c2ccccc2)C12CCN(C(c1ccccc1F)c1ccccc1F)CC2,16000 nM,858 nM,567 nM,6.3 nM
O=C1NCN(c2ccccc2)C12CCN(C1c3ccccc3C=Cc3ccccc31)CC2,11500 nM,776 nM,475 nM,36.5 nM
Cc1ccccc1C(c1ccccc1C)N1CCC2(CC1)C(=O)NCN2c1ccccc1,8600 nM,1600 nM,346 nM,9 nM
O=C1NCN(c2ccccc2)C12CCN(C(c1ccccc1)C1CCCC1)CC2 (stereo not drawn),4680 nM,26 nM,398 nM,4.6 nM
Cc1ccccc1C(c1ccccc1)N1CCC2(CC1)C(=O)NCN2c1ccccc1 (stereo not drawn),6040 nM,579 nM,1110 nM,11.5 nM
O=C1NCN(c2ccccc2)C12CCN(Cc1ccsc1)CC2,9000 nM,26.2 nM,133 nM,14 nM
CCC(c1ccccc1)N1CCC2(CC1)C(=O)NCN2c1ccccc1 (stereo not drawn),6850 nM,60.5 nM,355 nM,17 nM
CC1(C)CCC(N2CCC3(CC2)C(=O)NCN3c2ccccc2)c2ccc(Cl)cc21 (stereo not drawn),1290 nM,282 nM,49.1 nM,1.4 nM
O=C1NCN(c2ccccc2)C12CCN(C(c1ccccc1)c1ccc(Cl)cc1)CC2 (stereo not drawn),24800 nM,3530 nM,5080 nM,140 nM
O=C1NCN(c2ccccc2)C12CCN(C(c1ccccc1)c1ccccc1F)CC2 (stereo not drawn),15700 nM,1180 nM,818 nM,10.8 nM
